Antibody variant affinities, Ab-14 light chain, assay B

Binding partner: SARS-CoV-2 spike HR2 peptide, sequence PDVDLGDISGINAS.

Parent: Ab-14, a human scFv built as VH, the linker GGGGSGGGGSGGGGS, VL. Only the CDRs of the light chain vary.
VH: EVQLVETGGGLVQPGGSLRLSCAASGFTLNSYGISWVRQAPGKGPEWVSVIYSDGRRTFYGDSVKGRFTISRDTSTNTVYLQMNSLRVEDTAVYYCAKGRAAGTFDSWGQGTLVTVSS
VL: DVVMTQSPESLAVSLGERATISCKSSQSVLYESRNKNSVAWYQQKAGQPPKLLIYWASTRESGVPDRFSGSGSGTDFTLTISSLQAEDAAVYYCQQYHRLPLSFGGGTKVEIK

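The parent was found by panning a naive human phage display library on the peptide. These sequences belong to a second round, designed from the earlier measurements on random variants of the parent. Several design methods are mixed in this list. In AlphaSeq, yeast of one mating type display the scFv and yeast of the other type display the target. The frequency of each diploid, read from paired DNA barcodes, reflects how well the two displayed proteins bind. Each replicate has its own calibration line, from reference interactions of the BCL2 family. Each pool was mated in six replicate cultures.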

Each variant is given by its three light chain CDRs, as the data file delimits them; those of the parent are KSSQSVLYESRNKNSVA, WASTRES, QQYHRLPLS.
This list holds designs with at most six substitutions.
The read-out is the apparent dissociation constant on a log10 scale (nM): the lower, the stronger.
Replicates are averaged; those with no signal do not enter the mean.
"no signal" means that the variant was in the library but no mating with the target was seen in any replicate; the authors take this as a sign of poor binding, and no number exists.
Empty control strains, which show no peptide, gave a signal in 4% of pairings with all light chain designs; the median was 2.64 and 95% of these signals were weaker than 1.59. No background was subtracted. For each scFv, signals with the empty controls are counted beside the result.
A sequence measured in both rounds can read differently, since the two assays cover different ranges.
A sequence that the file lists under several names has all its replicates pooled.
In the paper, a design with two or fewer of six values counts as a poor binder.
Of ten entries with the parent sequence, four were seen in most replicates (averages 0.34 to 2.37), three in one and three in none, so single entries are noisy.

* KVSISYLYESRNKNSVA, EASTRES, QQYHRLPLS -> -0.05 (6 of 6 replicates; controls 1 of 18)
* KSSWSVLYESGNKNSVA, EASTRED, QQYHRLPLS -> 0.27 (6 of 6 replicates; controls 2 of 18)
* KMSQSVLMESRNKNSVA, WASTRES, QQYHRLPLS -> 0.13 (6 of 6 replicates; controls 0 of 18)
* KPSQSVLDESRNKNSVA, WASTRES, QQSGRLPLF -> no signal (0 of 6 replicates; controls 0 of 18)
* KFSQSVLYESRNKNSVA, NASQRMS, QQYHRLPLS -> 0.43 (6 of 6 replicates; controls 0 of 18)
* KVLQSVCYEGRNKNSVA, HASTRED, QQYHRLPLS -> 0.30 (6 of 6 replicates; controls 0 of 18)
* KASQSVLYESDNKNSVA, WASTRES, QQYHRLPLS -> 0.08 (6 of 6 replicates; controls 0 of 18)
* KLSQSVLYEERNKNSVA, QASQRES, QQYHRLPLS -> -1.10 (6 of 6 replicates; controls 0 of 18)
* DVSQSWLYESRNKNSVA, GASTRES, QQYHRLPLS -> -0.19 (6 of 6 replicates; controls 3 of 18)
* KISQSVLYESRNKNSVA, AASTREA, QQYHRLPLS -> -0.28 (6 of 6 replicates; controls 0 of 18)
* KLQQSDLYESRMKNSVA, NASTRES, QQYHRLPLS -> 0.07 (6 of 6 replicates; controls 2 of 18)
* KSSQSWLYESRNKNSVA, RASTRES, QSYHRLPLS -> 1.04 (6 of 6 replicates; controls 0 of 18)
* KSSISYLYESRNANSVA, EASTREQ, QQYHRLPLS -> 0.05 (6 of 6 replicates; controls 0 of 18)
* KFSQSVLYESRNKNSVA, WASTRES, QQYHRLPLS -> 2.10 (4 of 6 replicates; controls 0 of 18)
* KISQSVLYESNNQNSVA, WASTRES, QQYHRLPLS -> 0.29 (6 of 6 replicates; controls 1 of 18)
* KLSWSVLYESRNKNSVA, GASTRES, QQYHRLPLS -> -0.30 (6 of 6 replicates; controls 0 of 18)
* KSSQSVLEESRNKNSVA, WASTRES, QQYYRLPLS -> 1.31 (6 of 6 replicates; controls 1 of 18)
* KSSQSILYESRNKNSVA, WASTRES, QQYHRLPLS -> 1.24 (6 of 6 replicates; controls 1 of 18)
* KSSQSVCMESRNKNSVA, DASTRES, QQYHRLPLS -> 1.05 (6 of 6 replicates; controls 0 of 18)
* KVSQSHLYESRNKNSVA, GASTRES, QQYHRLPLS -> -0.30 (6 of 6 replicates; controls 2 of 18)
* KSGISYLEESRNKNSVA, EASTRES, QQYHRLPLS -> 0.04 (6 of 6 replicates; controls 0 of 18)
* KQSQSVLYESRNKNSVA, MASTRMS, QQYWRLPLS -> 0.89 (6 of 6 replicates; controls 0 of 18)
* KSSISQLYESRNKGSVA, AASTRES, QQYHRLPLS -> 0.25 (6 of 6 replicates; controls 1 of 18)
* KQSESVLQESRNKNSVA, DASTRES, QQYHRLPLS -> -0.46 (6 of 6 replicates; controls 0 of 18)
* KLSQSWEYESRNKNNVA, NASTRES, QQYHRLPLS -> -0.14 (6 of 6 replicates; controls 1 of 18)
* KLSQSVLYESRMKNSVA, EASTRES, QQYHRLPLS -> -0.07 (6 of 6 replicates; controls 0 of 18)
* KWSQSVLGEERNKMSVA, NGSTRES, QQYHRLPLS -> 0.55 (6 of 6 replicates; controls 2 of 18)
* KLSQSVLYESRNKNSIA, DASTRFS, QQWHRLPLS -> 0.66 (6 of 6 replicates; controls 0 of 18)
* KLSQSVLYESRNKNNVA, GASTRES, QDYHRLPLS -> -0.50 (6 of 6 replicates; controls 0 of 18)
* KSGQSVLYESRNKNSVA, GASQRWS, QQYHRLPLS -> 0.43 (6 of 6 replicates; controls 1 of 18)
* KVSQGVWYESRNKNSVA, WASTRES, QQYHRLPLS -> 0.97 (6 of 6 replicates; controls 2 of 18)
* KLSQSVLYESRQKNSVA, NASTREQ, QQYHRLPLS -> -0.05 (6 of 6 replicates; controls 3 of 18)
* KSMQSVLYESRDKNSVA, HASTRED, QQYHRLPLS -> 0.28 (6 of 6 replicates; controls 2 of 18)
* KQSQSVLYESRNKNSVA, DASWRES, QQYHRLPLM -> 0.80 (6 of 6 replicates; controls 0 of 18)
* KFSDSVLLESRTKNNVA, NASTRES, QQYHRLPLS -> 0.24 (6 of 6 replicates; controls 2 of 18)
* KLQQSTLYESRNKNSVA, LASTRES, QQYHRLPLS -> 2.42 (5 of 6 replicates; controls 0 of 18)
* KSSHSVDYESSNKNSVA, WASTRES, QQYHRLPLS -> 1.50 (6 of 6 replicates; controls 0 of 18)
* KSSQSVLYESRNKNSVA, SASTRES, QQQHRLPLS -> no signal (0 of 6 replicates; controls 3 of 18)
* KCMQSSLYESRNKNSVA, NASTREV, QQYHRLPLS -> -0.01 (6 of 6 replicates; controls 2 of 18)
* KSSQSVLYESRNKNSIA, SASTRTS, QAYHRLPLE -> 1.13 (6 of 6 replicates; controls 0 of 18)
* KESQSWAYESRNKNSVA, GASTRES, QQYHRLPLS -> 1.88 (6 of 6 replicates; controls 1 of 18)
* KSSQSWLYVSRNKNSVG, GASTREP, QQYHRLPLD -> 1.18 (5 of 6 replicates; controls 0 of 18)
* KSSQSVLYNSRNKNSVA, EASTREQ, QQYHRLPLS -> 0.42 (6 of 6 replicates; controls 2 of 18)
* KVRQSELYESRNKNSVA, WASTRES, QQYHRLPLS -> 0.90 (6 of 6 replicates; controls 2 of 18)
* KFSPSYLYESRNKNSVA, NASTRES, QQYHRLPLS -> -0.26 (6 of 6 replicates; controls 2 of 18)
* KSSQSVLMESRNKNSVA, EASTRES, QQYHRLPLS -> 0.43 (6 of 6 replicates; controls 1 of 18)
* KLSQSHLYESRNKNSVA, NASTREQ, QQYHRLPLS -> 0.05 (6 of 6 replicates; controls 0 of 18)
* KLSQSVLYESRNKNSVA, NASTRES, QQYHRLPLS -> -0.06 (12 of 12 replicates; controls 4 of 36)
* KFSQSVLYESTTMNSVA, NASTRES, QQYHRLPLS -> 0.06 (6 of 6 replicates; controls 1 of 18)
* KLSQSVWYESRNSNSVA, NASNRLS, QQYHRLPLS -> 0.07 (6 of 6 replicates; controls 0 of 18)

The first 8 entries again:

| CDR-L1 | CDR-L2 | CDR-L3 | mean, log10 nM | replicates with signal | control signals |
|---|---|---|---|---|---|
| KVSISYLYESRNKNSVA | EASTRES | QQYHRLPLS | -0.05 | 6 of 6 | 1 of 18 |
| KSSWSVLYESGNKNSVA | EASTRED | QQYHRLPLS | 0.27 | 6 of 6 | 2 of 18 |
| KMSQSVLMESRNKNSVA | WASTRES | QQYHRLPLS | 0.13 | 6 of 6 | 0 of 18 |
| KPSQSVLDESRNKNSVA | WASTRES | QQSGRLPLF | no signal | 0 of 6 | 0 of 18 |
| KFSQSVLYESRNKNSVA | NASQRMS | QQYHRLPLS | 0.43 | 6 of 6 | 0 of 18 |
| KVLQSVCYEGRNKNSVA | HASTRED | QQYHRLPLS | 0.30 | 6 of 6 | 0 of 18 |
| KASQSVLYESDNKNSVA | WASTRES | QQYHRLPLS | 0.08 | 6 of 6 | 0 of 18 |
| KLSQSVLYEERNKNSVA | QASQRES | QQYHRLPLS | -1.10 | 6 of 6 | 0 of 18 |

Values reported by Li et al. 2023, doi:10.1038/s41467-023-39022-2 (FLAb copy).